Cyclic peptide permeability, from CycPeptMPDB

Source: CycPeptMPDB (Li et al. 2023), which took these values from Furukawa et al. 2016, doi:10.1021/acs.jmedchem.6b01246.

PAMPA measures passive passage through an artificial lipid membrane.
Permeability is in 10^-6 cm/s, converted from the database's log10 values; higher is more permeable.

structure (SMILES),PAMPA (10^-6 cm/s)
CCCC[C@@H]1NC(=O)[C@H](CC(C)C)N(C)C(=O)CN(CCOC)C(=O)[C@H](Cc2ccccc2)NC(=O)CN(CCCCc2ccccc2)C(=O)[C@H]2CCCN2C1=O,0.5
CCCC[C@@H]1NC(=O)[C@H](CC(C)C)N(C)C(=O)CN(CCc2cccnc2)C(=O)[C@H](CC(C)C)NC(=O)CN(CCCCc2ccccc2)C(=O)[C@H]2CCCN2C1=O,2.1
CCCC[C@@H]1NC(=O)[C@H](CC(C)C)N(C)C(=O)CN(CC2CCCCC2)C(=O)[C@H](Cc2ccccc2)NC(=O)CN(Cc2ccc(Cl)cc2)C(=O)[C@H]2CCCN2C1=O,0.0025
CCCC[C@@H]1NC(=O)[C@H](CC(C)C)N(C)C(=O)CN(CCOc2ccccc2)C(=O)[C@H](Cc2ccccc2)NC(=O)CN(CCCOC(C)C)C(=O)[C@H]2CCCN2C1=O,1.8
CCCC[C@@H]1NC(=O)[C@H](CC(C)C)N(C)C(=O)CN(CCCc2cnn(C)c2)C(=O)[C@H](CC(C)C)NC(=O)CN(CCC)C(=O)[C@H]2CCCN2C1=O,2.6
CCCC[C@@H]1NC(=O)[C@H](CC(C)C)N(C)C(=O)CN(CCCc2cnn(C)c2)C(=O)[C@H](CC(C)C)NC(=O)CN(CCCCc2ccccc2)C(=O)[C@H]2CCCN2C1=O,1.5
CCCC[C@@H]1NC(=O)[C@H](CC(C)C)N(C)C(=O)CN(CC2CCOCC2)C(=O)[C@H](CC(C)C)NC(=O)CN(Cc2cc(CC(C)C)on2)C(=O)[C@H]2CCCN2C1=O,8.9
CCCC[C@@H]1NC(=O)[C@H](CC(C)C)N(C)C(=O)CN(CCCN2CCCC2=O)C(=O)[C@H](Cc2ccc3ccccc3c2)NC(=O)CN(Cc2ccc3c(c2)OCO3)C(=O)[C@H]2CCCN2C1=O,0.32
CCCC[C@@H]1NC(=O)[C@H](CC(C)C)N(C)C(=O)CN(CCCc2cnn(C)c2)C(=O)[C@H](Cc2ccc3ccccc3c2)NC(=O)CN(Cc2ccc(Cl)cc2)C(=O)[C@H]2CCCN2C1=O,0.01
CCCC[C@@H]1NC(=O)[C@H](CC(C)C)N(C)C(=O)CN(CCc2cccnc2)C(=O)[C@H](Cc2ccccc2)NC(=O)CN(CCN2CCOCC2)C(=O)[C@H]2CCCN2C1=O,0.22
CCCC[C@@H]1NC(=O)[C@H](CC(C)C)N(C)C(=O)CN(CCc2cccnc2)C(=O)[C@H](Cc2ccc3ccccc3c2)NC(=O)CN(CCCCc2ccccc2)C(=O)[C@H]2CCCN2C1=O,0.024
CCCC[C@@H]1NC(=O)[C@H](CC(C)C)N(C)C(=O)CN(CCCc2cnn(C)c2)C(=O)[C@H](Cc2ccccc2)NC(=O)CN(Cc2ccc(Cl)cc2)C(=O)[C@H]2CCCN2C1=O,0.78
CCCC[C@@H]1NC(=O)[C@H](CC(C)C)N(C)C(=O)CN(CCCN2CCCC2=O)C(=O)[C@H](CC(C)C)NC(=O)CN(CCN2CCOCC2)C(=O)[C@H]2CCCN2C1=O,0.017

2 of these entries, quoted again:

| structure (SMILES) | PAMPA (10^-6 cm/s) |
|---|---|
| CCCC[C@@H]1NC(=O)[C@H](CC(C)C)N(C)C(=O)CN(CC2CCCCC2)C(=O)[C@H](Cc2ccccc2)NC(=O)CN(Cc2ccc(Cl)cc2)C(=O)[C@H]2CCCN2C1=O | 0.0025 |
| CCCC[C@@H]1NC(=O)[C@H](CC(C)C)N(C)C(=O)CN(CCCc2cnn(C)c2)C(=O)[C@H](CC(C)C)NC(=O)CN(CCCCc2ccccc2)C(=O)[C@H]2CCCN2C1=O | 1.5 |

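Conditions beyond the assay type are not listed; see the original paper. The list need not hold all peptides of the study. Peptides that the database sets to -10, its floor, are left out.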